Reference: US20100167397A1, “ENDOCRINE CELL LINES AND METHOD OF USING THE SAME” (KYOWA HAKKO KOGYO CO., LTD., priority 2002, published 2010)

Protein sequences, listed by entry. Tags and fused reporters are not part of them. Lines headed by an entry give the natural chain unless they say otherwise; changes in a name come on top.
UniProt P35346: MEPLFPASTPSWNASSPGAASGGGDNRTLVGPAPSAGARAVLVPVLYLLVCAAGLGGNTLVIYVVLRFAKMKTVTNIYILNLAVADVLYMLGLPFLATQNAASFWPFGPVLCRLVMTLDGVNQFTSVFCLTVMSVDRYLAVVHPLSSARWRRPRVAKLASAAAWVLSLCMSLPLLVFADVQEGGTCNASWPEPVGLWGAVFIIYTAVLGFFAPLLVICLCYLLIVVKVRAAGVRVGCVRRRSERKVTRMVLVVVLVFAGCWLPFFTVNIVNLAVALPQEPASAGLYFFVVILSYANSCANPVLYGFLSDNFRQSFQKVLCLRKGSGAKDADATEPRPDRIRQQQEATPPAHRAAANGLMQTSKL

Target: type 5 somatostatin receptor (sst5) (Homo sapiens, UniProt P35346)
Assay: Assay cells / expression cloning for type 5 somatostatin receptor (sst5), Renilla luciferase reporter in GBCRC6
Conditions: GBCRC6 with pAGal9-sst5; 100 nmol/L, 6 hours

## cortistatin
  reactivity of sst5 to cortistatin (Renilla luciferase reporter): activation of sst5
